Measurements from US20050079180A1, “Manipulatin of oocyte maturation and male germ cell survival” (priority 2003, published 2005).

Experiments:
[1] = test system: seminiferous tubular cells; experiment: cAMP production by seminiferous tubular cells; format: cell-based, rat; settings: agent alone; FIG. 2D
Description: FIGS. 2A-2D. Expression of LGR8 in male germ cells and INSL3 activation of the inhibitory G protein in seminiferous tubules. A) Northern blot analyses of LGR8 expression in testes of developing rats. B) In situ hybridization localization of LGR8 transcripts in the testis. The antisense LGR8 or INSL3 probe was used for the analysis of testes from six-week-old rats. Hybridization signals for LGR8 and INSL3 were present in seminiferous tubules and interstitial cells, respectively. C) Direct binding of biotinylated INSL3 to different testicular compartments. T: total binding; N: nonspecific binding; S: specific binding. LGR8: 293T cells expressing recombinant LGR8. Control: 293T cells not transfected with the LGR8 plasmid. […]
Seminiferous tubular cells were isolated by the method of Nagao (1989) In Vitro Cell Dev Biol 25:1088-1098, with modifications. […] After washing the cells three times, radioactivity in the pellets was determined.
To express recombinant LGR8, human 293T cells derived from embryonic kidney fibroblasts were maintained in Dulbecco's modified Eagle's medium/Ham's F-12 (DMEM/F12) supplemented with 10% FBS, 100 μg/ml penicillin, 100 μg/ml streptomycin, and 2 mM L-glutamine. […] Total cAMP in each well was measured in triplicate with primary cultured cells by a specific radioimmunoassay as previously described by Davoren and Hsuch (1985) Biol Reprod 33:37-52. […]

[2] = test system: oocytes of preovulatory follicles; experiment: In vivo oocyte maturation after intrabursal injection in PMSG-primed rats; set-up: species or system rat; settings: 8 h after intrabursal injection, FIG. 3C
Protocol: To study the effect of INSL3 on oocyte maturation in vivo, intrabursal injection was performed (Vaknin et al. PMID: 11133687). Immature PMSG-treated rats were lightly anesthetized by ether, and one of the ovaries was exteriorized through a small lumbosacral incision. Rat INSL3, dissolved in 100 μl of PBS, was injected through a 30-gauge needle threaded into the ovarian bursa via the adjoining fat pad. After injection, the ovary was replaced into the abdominal cavity, and skin was clipped. Eight hours later, CEOs were collected by puncturing the largest ovarian follicles to examine the occurrence of oocyte GVBD.

INSL3 transcript = experiment: Ovarian INSL3 transcript levels (RT-PCR) after hCG in PMSG-primed immature rats; format: in vivo, rat; settings: ovulatory dose of hCG, immature rats primed with PMSG; FIG. 3A
INSL3 message = experiment: Gonadotropin deprivation model: testis INSL3 mRNA (Northern blot); format: in vivo, rat; settings: FIG. 4B
Protocol: Total RNA from rat testes were extracted using the RNeasy purification kits (Qiagen Inc. Chatsworth, Calif.) before Northern blotting. The rat ortholog for LGR8 was identified in the GenBank (accession number AC098990) and this sequence was used in reverse transcription-PCR to yield a LGR8 probe of 230 bp for Northern blotting and in situ analyses. For in situ hybridization studies, testes form 40 days old Sprague-Dawley rat testes were fixed at 4° C. for 6 h in 4% paraformaldehyde in PBS, followed by immersion in 0.5 M sucrose in PBS overnight. Cryostat sections (7 μm thick) were mounted on microscope slides coated with poly-L-lysine (Sigma Chemical Co., St. Louis, Mo.) and stored at −80C. until analyzed. The hybridization procedure was essentially the same as described by Leo et al. (1999) Endocrinology 140:5469-5477. In brief, sections were pretreated serially with 0.2 M HCl, 2×SSC, pronase E (0.125 mg/ml), 4% paraformaldehyde, acetic anhydride in triethanolamine and dehydrated in ascending grades of ethanol. […]
Male Sprague-Dawley rats at 28 days of age were treated subcutaneously with GnRH antagonist (250 μg/kg/day) to suppress pituitary gonadotropin secretion. […] Animals were killed 5 days after initial treatment and organ weight determined. […]

preovulatory follicles = experiment: Oocyte maturation (GVBD) in cultured intact preovulatory follicles; format: cell-based, rat; settings: FIG. 1F
Protocol: Briefly, female rats at 26 d of age were injected with 15 IU pregnant mare serum gonadotropin (PMSG). After 48-50 h, ovaries were dissected in Leivovitz's L-15 medium (Invitrogen Corp., Carlsbad, Calif.) supplemented with 5% fetal bovine serum and 100 μg/ml of penicillin and streptomycin. The CEOs were collected by puncturing the largest ovarian follicles in the L15 medium containing 0.25 mM of MIX within 20 min, washed twice in L15 medium without MIX and transfer to test medium. The CEO were cultured with or without different doses of rat INSL3 in L15 medium without both FBS and IBMX. For controls, the CEOs were cultured in L15 medium with IBMX. At the end of culture, the occurrence of germinal vesicle breakdown (GVBD) in oocyte was examined after removing cumulus cells surrounding CEO by a small-bore pipette under Hoffman modulation contrast microscopy (Nikon Inc., Tokyo, Japan). […] The vials were flushed at the start of the culture with O2/N2 (1/1) and cultured at 37C with gently shaking. After culture, individual CEO was dissected from each follicle to examine the occurrence of GVBD. For cAMP determination, 20 to 30 denuded oocytes were cultured with or without rat INSL3 (10 nM) in L15 medium containing 10 μM of cilostamide with or without 50 μM of forskolin. […]

With “FSH: human follicle stimulating hormone from Organon” the cAMP production [1] was “stimulated cAMP production by Sertoli cells”.
In the case of “hCG: an agonist of LH; from A.P.L, Ayerst Laboratories”, the “oocyte maturation (germinal vesicle breakdown in preovulatory follicles)” value [2] was “induced oocyte maturation”, the “ovarian INSL3 transcript levels” value (INSL3 transcript) was “increased at 1.5 h after treatment” and the “testis INSL3 message levels” value (INSL3 message) was “increased INSL3 expression”.
“LH: luteinizing hormone secreted by the pituitary” was tested, and the oocyte maturation (preovulatory follicles) was “induced oocyte maturation in a dose-dependent manner”.
